# Laboratory results from patent publication EP0973746B1, “SUBSTITUTED 3-CYANO QUINOLINES” (Wyeth Holdings Corporation, priority 1997, dated 1998).
# By UniProt entry, the sequences of proteins in these tests, tags left out. Residues count along the entry.
# UniProt P29317, 24-976, species assumed: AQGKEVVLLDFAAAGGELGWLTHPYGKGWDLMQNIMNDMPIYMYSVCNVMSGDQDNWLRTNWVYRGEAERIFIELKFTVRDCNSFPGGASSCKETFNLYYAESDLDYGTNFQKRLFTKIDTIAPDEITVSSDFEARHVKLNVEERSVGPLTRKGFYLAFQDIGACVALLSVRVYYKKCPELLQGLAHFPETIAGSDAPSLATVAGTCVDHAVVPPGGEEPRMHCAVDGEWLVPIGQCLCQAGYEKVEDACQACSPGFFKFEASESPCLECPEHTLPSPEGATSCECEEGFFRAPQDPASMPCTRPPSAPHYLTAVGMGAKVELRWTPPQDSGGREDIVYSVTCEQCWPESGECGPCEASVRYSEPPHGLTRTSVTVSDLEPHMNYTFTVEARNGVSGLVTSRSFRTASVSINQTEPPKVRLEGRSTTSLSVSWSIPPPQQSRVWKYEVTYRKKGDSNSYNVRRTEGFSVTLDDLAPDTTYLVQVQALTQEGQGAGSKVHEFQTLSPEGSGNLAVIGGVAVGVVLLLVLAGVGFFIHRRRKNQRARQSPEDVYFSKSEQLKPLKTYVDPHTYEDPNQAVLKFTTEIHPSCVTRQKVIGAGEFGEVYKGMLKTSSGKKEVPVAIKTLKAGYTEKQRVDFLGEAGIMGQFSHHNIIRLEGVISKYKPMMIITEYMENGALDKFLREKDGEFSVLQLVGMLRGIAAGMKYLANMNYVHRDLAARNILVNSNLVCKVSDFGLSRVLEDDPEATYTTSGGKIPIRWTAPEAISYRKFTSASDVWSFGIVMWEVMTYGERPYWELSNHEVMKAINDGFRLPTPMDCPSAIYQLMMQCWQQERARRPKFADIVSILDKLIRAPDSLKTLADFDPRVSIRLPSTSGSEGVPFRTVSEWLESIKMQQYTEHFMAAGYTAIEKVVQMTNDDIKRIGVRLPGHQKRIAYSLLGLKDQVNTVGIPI
# UniProt P35968, 834-1162 limits assumed: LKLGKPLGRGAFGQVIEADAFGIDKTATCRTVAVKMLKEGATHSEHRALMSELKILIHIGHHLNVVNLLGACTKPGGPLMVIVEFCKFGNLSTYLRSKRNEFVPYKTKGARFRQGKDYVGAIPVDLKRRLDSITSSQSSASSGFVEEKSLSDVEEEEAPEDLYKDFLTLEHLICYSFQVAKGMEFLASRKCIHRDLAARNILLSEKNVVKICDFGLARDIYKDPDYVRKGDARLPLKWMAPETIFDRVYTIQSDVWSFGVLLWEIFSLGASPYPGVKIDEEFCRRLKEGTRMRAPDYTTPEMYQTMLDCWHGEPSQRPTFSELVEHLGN
# Read-outs that look alike come from different tables or passages of the source.
# Tests used:
# MIP = test: Inhibition of cancer cell growth as measured by cell number, MIP; type: cell-based; conditions: Homo sapiens, Sulforhodamine B, 48 hours exposure, Table 4
# HCT15 = test: Inhibition of cancer cell growth as measured by cell number, HCT15; type: cell-based; conditions: Homo sapiens, HCT-15, 48 h, read-out: IC50 HCT15
# [1] = target: Epithelial Cell Kinase (ECK) (Homo sapiens, UniProt P29317); test: biochemical
# A431 [2] = test: Inhibition of cell growth by incorporation of [3H]-thymidine, A431; type: cell-based; conditions: Homo sapiens, A-431, read-out: IC50 A431
# HTB161 = test: Inhibition of cancer cell growth as measured by cell number, HTB161; type: cell-based; conditions: Homo sapiens, 48 h, read-out: IC50 HTB161
# NHEK = test: Inhibition of cell growth by incorporation of [3H]-thymidine, NHEK; type: cell-based; conditions: Homo sapiens, read-out: IC50 NHEK
# A431 [3] = test: Inhibition of cancer cell growth as measured by cell number, A431; type: cell-based, human; conditions: Homo sapiens, A-431, 48 h, read-out: IC50 A431, cell number, Sulforhodamine B, 48 hours exposure; Table 6;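 further: human A431 line, picked because it overexpresses epidermal growth factor receptor (EGFR)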
# A27805 = test: Inhibition of cancer cell growth as measured by cell number, A27805; type: cell-based; conditions: Homo sapiens, 48 h, read-out: IC50 A27805
# COLO205 = test: Inhibition of cancer cell growth as measured by cell number, COLO205; type: cell-based; conditions: Homo sapiens, COLO 205, 48 h, read-out: IC50 COLO205
# HL60 = test: Inhibition of cancer cell growth as measured by cell number, HL60; type: cell-based; conditions: Homo sapiens, HL-60, 48 h, read-out: IC50 HL60
# LOX = test: Inhibition of cancer cell growth as measured by cell number, LOX; type: cell-based; conditions: Homo sapiens, 48 h;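 further: LOX cells served as a line with low or absent EGFR and HER2/neu expression, in contrast to receptor-overexpressing lines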
# A2780DDP = test: Inhibition of cancer cell growth as measured by cell number, A2780DDP; type: cell-based; conditions: Homo sapiens, 48 h, read-out: IC50 A2780DDP
# A549 = test: Inhibition of cancer cell growth as measured by cell number, A549; type: cell-based; conditions: Homo sapiens, A549, 48 h, read-out: IC50 A549
# LX1 = test: Inhibition of cancer cell growth as measured by cell number, LX1; type: cell-based; conditions: Homo sapiens, LX-1, 48 h, read-out: IC50 LX1
# LNCAP = test: Inhibition of cancer cell growth as measured by cell number, LNCAP; type: cell-based; conditions: Homo sapiens, 48 h, read-out: IC50 LNCAP
# PC3 = test: Inhibition of cancer cell growth as measured by cell number, PC3; type: cell-based; conditions: Homo sapiens, PC-3, 48 h, read-out: IC50 PC3
# CCL228 = test: Inhibition of cancer cell growth as measured by cell number, CCL228; type: cell-based; conditions: Homo sapiens, 48 h, read-out: IC50 CCL228
# SW948 = test: Inhibition of cancer cell growth as measured by cell number, SW948; type: cell-based; conditions: Homo sapiens, SW948, 48 h, read-out: IC50 SW948
# CACO2 = test: Inhibition of cancer cell growth as measured by cell number, CACO2; type: cell-based; conditions: Homo sapiens, Caco-2, 48 h, read-out: IC50 CACO2
# CX1 = test: Inhibition of cancer cell growth as measured by cell number, CX1; type: cell-based; conditions: Homo sapiens, CX-1, 48 h, read-out: IC50 CX1
# DU145 = test: Inhibition of cancer cell growth as measured by cell number, DU145; type: cell-based; conditions: Homo sapiens, DU-145, 48 h, read-out: IC50 DU145
# SW620 = test: Inhibition of cancer cell growth as measured by cell number, SW620; type: cell-based, human; conditions: Homo sapiens, SW-620, 48 h, read-out: IC50 SW620, cell number, Sulforhodamine B, 48 hours exposure;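 further: SW620 was included as a cell line with little or no EGFR or HER2/neu expression, in contrast to receptor-overexpressing lines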
# SKBR3 = test: Inhibition of cancer cell growth as measured by cell number, SKBR3; type: cell-based, human; conditions: Homo sapiens, SK-BR-3, 48 h, read-out: IC50 SKBR3, cell number, Sulforhodamine B, 48 hours exposure;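 further: SK-BR-3 cells were selected as a line overexpressing HER2/neu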
# MCF7 = test: Inhibition of cancer cell growth as measured by cell number, MCF7; type: cell-based; conditions: Homo sapiens, MCF7, 48 h, read-out: IC50 MCF7;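 further: MCF7 was included as a line with little or no EGFR or HER2/neu expression, in contrast to the receptor-overexpressing lines of the panel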
# [4] = target: T1, Kinase insert Domain containing Receptor (KDR: the catalytic domain of the VEGF receptor) (Homo sapiens, UniProt P35968); test: Inhibition of Kinase insert Domain containing Receptor (KDR); type: biochemical;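 further: KDR phosphorylating a Glu:Tyr 4:1 copolymer with P32- or P33-labelled ATP, Mg++ and vanadate, read as acid-insoluble radiolabel, compared with compound-free reaction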
# T1 construct: KDR: the catalytic domain of the VEGF receptor
smiles,measurement,setting,value
"COc1cc2ncc(C#N)c(Nc3cccc(C(F)(F)F)c3)c2cc1OC [Example 42, 4-[(3-Trifluoromethylphenyl)amino]-6,7-dimethoxy-3-quinolinecarbonitrile]",IC50,MIP,11 µg/mL
same,IC50,HCT15,6.71 µg/mL
same,IC50,"[1]; Eck IC50, pH 7.2, nonradioactive format",> 53.6 µM
same,IC50,A431 [2],7 µM
same,IC50,HTB161,5.18 µg/mL
same,IC50,NHEK,0.01 µM
same,IC50,A431 [3],3.28 µg/mL
same,IC50,A27805,6.43 µg/mL
same,IC50,COLO205,5.97 µg/mL
same,IC50,HL60,5.43 µg/mL
same,IC50,"LOX; read-out: IC50 LOX, cell number, Sulforhodamine B, 48 hours exposure, Table 6",5.15 µg/mL
same,IC50,A2780DDP,8.22 µg/mL
same,IC50,A549,7.57 µg/mL
same,IC50,LX1,18.4 µg/mL
same,IC50,LNCAP,2.39 µg/mL
same,IC50,PC3,29.1 µg/mL
same,IC50,CCL228,8.93 µg/mL
same,IC50,SW948,17.2 µg/mL
same,IC50,CACO2,3.84 µg/mL
same,IC50,CX1,9.13 µg/mL
same,IC50,DU145,5.56 µg/mL
"COc1cc2c(Nc3ccc(Cl)cc3F)c(C#N)cnc2cc1OCCCN1CCOCC1 [Example 81, 4-(4-Chloro-2-fluoro-phenylamino)-6-methoxy-7-(3-morpholin-4-yl-propoxy)-quinoline-3-carbonitrile]",IC50,SW620; Table 8,2.08 µg/mL
same,IC50,SKBR3; Table 8,1.44 µg/mL
"N#Cc1cnc2cc3c(cc2c1Nc1cccc(Br)c1)OCO3 [Example 40, 8-[(3-Bromophenyl)amino]-[1,3]-dioxolo[4,5-g]quinoline-7-carbonitrile]",IC50,SW620; Table 4,2.26 µg/mL
same,IC50,SKBR3; Table 7,3.6 µg/mL
same,IC50,LOX; read-out: IC50 LOX,1.15 µg/mL
same,IC50,MCF7,3.77 µg/mL
"CN(C)CC#CC(=O)Nc1ccc2ncc(C#N)c(Nc3ccc(F)c(Br)c3)c2c1 [Example 197, N-[4-[(3-Bromo-4-fluorophenyl)amino]-3-cyano-6-quinolinyl]-4-dimethylamino-2-butynamide]",IC50,SW620; Table 8,0.266 µg/mL
same,IC50,[1]; Eck IC50,42.9 µM
same,IC50,SKBR3; Table 8,0.197 µg/mL
"N#Cc1cnc2ccc(NC(=O)CCl)cc2c1Nc1cccc(Br)c1 [Example 19, N-[4-[(3-Bromophenyl)amino]-3-cyano-6-quinolinyl]-2-chloroacetamide]",IC50,SW620; Table 4,0.00648 µg/mL
same,IC50,SKBR3; Table 7,0.0265 µg/mL
same,IC50,MCF7,0.0553 µg/mL
"COc1cc2c(Nc3ccc(Cl)cc3F)c(C#N)cnc2cc1OCCCCl [Example 76, 4-(4-Chloro-2-fluoro-phenylamino)-7-(3-chloro-propoxy)-6-methoxy-quinoline-3-carbonitrile]",IC50,SW620; Table 8,2.31 µg/mL
same,IC50,SKBR3; Table 8,1.89 µg/mL
"CC(C)N(C)CC#CC(=O)Nc1ccc2ncc(C#N)c(Nc3cccc(Br)c3)c2c1 [Example 191, N-[4-[(3-Bromophenyl)amino]-3-cyano-6-quinolinyl]-4-(N-isopropyl-N-methylamino)-2-butynamide]",IC50,SW620; Table 8,0.084 µg/mL
"N#Cc1cnc2ccc(NC(=O)C=CCN3CCOCC3)cc2c1Nc1ccc(F)c(Br)c1 [Example 174, N-{4-[(3-Bromo-4-fluorophenyl)amino]-3-cyano-6-quinolinyl] -4-morpholino-2-butenamide]",IC50,SKBR3; Table 8,0.298 µg/mL
"COc1cc2ncc(C#N)c(Nc3ccc(F)c(Cl)c3)c2cc1NC(=O)C=CCN1CCOCC1 [Example 205, 4-Morpholin-4-yl-but-2-enoic acid [4-(3-chloro-4-fluorophenylamino)-3-cyano-7-methoxy-quinolin-6-yl]-amide]",IC50,SKBR3; Table 8,0.243 µg/mL
"CN1CCN(CC#CC(=O)Nc2ccc3ncc(C#N)c(Nc4cccc(Br)c4)c3c2)CC1 [Example 190, N-[4-[(3-Bromophenyl)amino]-3-cyano-6-quinolinyl]-4-(N-methylpiperazino)-2-butynamide]",IC50,SW620; Table 8,4.88 µg/mL
"COc1cc2ncc(C#N)c(Nc3cccnc3)c2cc1OC [Example 293, 6,7-Dimethoxy-4-(pyridin-3-ylamino)-quinoline-3-carbonitrile]",IC50,[1]; Eck IC50,32.6 µM
same,IC50,[4],32.6 µM
